Some compounds may have been tested in ways that are not shown here.
Columns and labels:
GPR35 [1] = biological target: T1, GPR35 (Homo sapiens, UniProt Q9HC97); assay: Tango β-arrestin translocation gene reporter assay in U2OS-GPR35-bla cells; format: cell-based
GPR35 [2] = biological target: T1, GPR35; assay: DMR agonism assay in native HT-29 cells (Epic optical biosensor); conditions: maximal DMR response in HT-29 (2,5-DNP: amplitude at 50 min)

By UniProt entry, the sequences of proteins in these tests, tags left out.
UniProt Q9HC97, whole entry: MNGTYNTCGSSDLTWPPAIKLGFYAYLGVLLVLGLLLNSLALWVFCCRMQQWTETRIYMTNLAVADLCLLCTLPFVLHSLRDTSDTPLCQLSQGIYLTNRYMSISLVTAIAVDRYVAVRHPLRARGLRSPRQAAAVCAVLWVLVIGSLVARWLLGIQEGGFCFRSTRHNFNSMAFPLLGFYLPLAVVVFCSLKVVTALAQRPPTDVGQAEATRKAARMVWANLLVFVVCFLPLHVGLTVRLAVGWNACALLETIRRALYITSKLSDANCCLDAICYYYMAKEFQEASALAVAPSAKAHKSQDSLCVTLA

SMILES: Nc1cc([N+](=O)[O-])cc([N+](=O)[O-])c1O
- efficacy (Tango, normalized to maximal response of zaprinast) (GPR35 [1]; U2OS-GPR35-bla, zaprinast maximal response in same plate = 100%): 91%
- Efficacy Tango (GPR35 [1]; maximal response normalized to the zaprinast maximal response): 91 ± 6 % zaprinast
- Efficacy DMR (GPR35 [2]): 212 ± 17 pm

Reference: patent US20130316985A1, “GPR35 Ligands And Uses Thereof” (CORNING INCORPORATED, priority 2012, published 2013)
